Results reported in PubChem BioAssay AID927 (National Center for Advancing Translational Sciences (NCATS), 2007).
The list shows a part of the results, in another mix than the full data. The source made the active and inactive calls. The call rests on the fitted dose curve; in most records, active means well fitted inhibition curve with a large enough effect; inconclusive means small, poorly fitted or top-dose-only effect; inactive means no such curve, though single readings can be large or run the other way.

Sequences of proteins named here, by UniProt entry; tags and fusion partners are left off.
UniProt O75604, whole entry: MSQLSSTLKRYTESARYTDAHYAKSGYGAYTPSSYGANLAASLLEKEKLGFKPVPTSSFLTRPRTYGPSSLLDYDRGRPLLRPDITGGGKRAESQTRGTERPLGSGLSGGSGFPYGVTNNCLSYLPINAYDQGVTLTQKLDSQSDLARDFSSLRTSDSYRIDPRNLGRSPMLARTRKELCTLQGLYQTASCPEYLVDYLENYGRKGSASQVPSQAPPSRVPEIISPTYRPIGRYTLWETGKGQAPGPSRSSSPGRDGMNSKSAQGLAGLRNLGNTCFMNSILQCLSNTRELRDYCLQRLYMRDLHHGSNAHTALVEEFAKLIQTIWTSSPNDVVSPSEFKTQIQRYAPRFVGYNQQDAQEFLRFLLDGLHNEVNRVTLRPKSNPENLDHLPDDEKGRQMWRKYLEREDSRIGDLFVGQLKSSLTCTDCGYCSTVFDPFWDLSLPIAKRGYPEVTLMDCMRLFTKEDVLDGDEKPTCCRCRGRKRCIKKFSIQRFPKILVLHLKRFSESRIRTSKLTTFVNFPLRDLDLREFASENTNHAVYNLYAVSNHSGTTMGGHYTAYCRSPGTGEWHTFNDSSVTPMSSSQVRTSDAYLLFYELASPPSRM

biological target: Ubiquitin carboxyl-terminal hydrolase 2 (Homo sapiens) (UniProt O75604); assay: qHTS Assay for Inhibitors of Ubiquitin-specific Protease USP2a; details: USP2a enzymatic assay; at 38.3 µM (top of the series); further: nearly all actives have a fitted effect of over 60% in size
Description: NIH Molecular Libraries Screening Centers Network [MLSCN]
NIH Chemical Genomics Center [NCGC]
PI Name: Nicholson, Ben. Progenra Inc, Malvern, PA
Homeostasis of cellular proteins is maintained through a combination of synthesis and degradation. The pathway that accounts for the majority of protein degradation is the ubiquitin-proteasomal pathway. Ubiquitin (Ub) is highly conserved in all cells and the generation of a multi-Ub chain typically targets proteins for degradation by the proteasome. However, ubiquitination is highly reversible and dynamic. Deubiquitination, the reverse process, is catalyzed through the action of enzymes referred to as isopeptidases or deubiquitinating enzymes (DUBs). This group of enzymes is collectively responsible for maintaining adequate pools of free ubiquitin and regulating the ubiquitination status of cellular proteins. The class of DUBs referred to as the ubiquitin-specific proteases (USP) family functions endoproteolytically to cleave Ub chains from a wide range of protein substrates. USP2a deubiquitinates fatty acid synthase (FASN) which has recently been identified as an emerging oncology target. To identify inhibitors of USP2a a cell-free assay was employed.
The reporter enzyme chosen is phospholipase A2 (PLA2), which has an absolute requirement for a free amino terminus. Thus, fusion of a UBL to the N-terminus of PLA2 inactivates PLA2. When the UBL-PLA2 reporter enzyme is cleaved by USP2, the activated reporter can subsequently act on its substrate, which is the commercially available NBD C6-HPC (Invitrogen). Thus, this coupled assay gives a fluorescent read-out, which is generated through the cleavage of the PLA2 reporter enzyme. The assay, developed by Progenra, Inc. uses Ub-PLA2 and USP2a at near equal and low (nM) amounts and has been licensed for sale by LifeSensors, Inc. as the Ub-IsoPro1 kit.
NCGC Assay Protocol Summary:
The assay buffer, prepared fresh at the day of the assay, contains 20mM Tris-HCl pH 8.0, 2mM CaCl2, 2mM beta-Mercaptoethanol, 0.1% DMSO. 3ul of 40nM (20nM final) USP2 core, which is stored on ice, is dispensed into a medium-binding black solid Kalypsys 1,536 well plate using the Kalypsys dispenser. The assay plate is then pinned with 23nL compound with the Kalypsys pintool in columns 5-48. The controls are pinned as follows: column 1&2 two-fold dilutions of 2M NEM in duplicate; column 3 DMSO; column 4 2M NEM (final concentration 38.2mM). The assay plate is incubated at RT for 30min. Subsequently, 3uL of 40nM (20nM final) Ub-PLA2 and 40uM (20uM final) NBD C6-HPC (stored on ice and protected from light) were dispensed into the plate using the Kalypsys dispenser. Plates were read immediately (0 Hour) on an Envision (Perkin Elmer) plate reader using the following wavelengths Ex 460nm /Em 535nm. Then, the assay plates were incubated for 2.5 hours and read again on the Envision using the same settings
Data were normalized to the to AC100 inhibition (NEM). Concentration-response curves were fitted to the normalized data and the concentration-response curves were then classified based on curve quality (r2), response magnitude and degree of measured activity. The time zero reading was used to flag fluorescence artifacts.
Keywords: ubiquitination, deubiquitination, proteases, profluorescent, MLSMR, MLSCN, NIH Roadmap, qHTS, NCGC

Compound	activity change, negative = inhibition
N#CC1(Nc2ccccc2)CCN(CCc2ccccc2)CC1	inactive: -1.22%
O=C(OC1CN2CCC1CC2)C1c2ccccc2Oc2ccccc21 (stereo unspecified)	inactive: 8.77%
CCOc1ncccc1C(=O)NCC1(N2CCOCC2)CCCCC1	inactive: 0.0342%
CCC(CO)(C(=O)OC1CN2CCC1CC2)c1ccccc1 (stereo unspecified)	inactive: 4.37%
Fc1ccccc1NC1CCN(Cc2ccccc2)CC1	inactive: -4.34%
N/C(=N\O)c1c(N)no[n+]1[O-]	inactive: -1.12%
